This note sets out measurements from doi:10.1101/2024.09.30.615802 (bioRxiv, 2024).

In the experiment the target is major birch allergen Bet v1 (Betula pendula, isoform Bet v 1-A (Bet …, UniProt P15494)). Briefly: SPR. In general terms: SPR reads the build-up and loss of mass on a sensor chip optically.

B1: REGN5713 (antibody format) (antibody, V domains shown)
VH: QVQLQESGPGLVKPSETLSLTCSVSGGSITNYFWTWIRQSPGKGLEWIGYIYYSGGTNYNPSLKSRVTISIDTSKNQFSLNMNSVTAADTAVYYCAGSYYYGVDVWGQGTTVTVSS
VL: EIVLTQSPATLSLSPGERATLSCRASQSIKSFLAWYRQKPGQAPRLLIYDASNRPTGIPARFSGSGSGTDFTLTINSLESEDFAVYFCQQRNNWPFTFGPGTKVDIK
For B1, the binding result was “binds”.

B2: REGN5714 (Fab format) (Fab, V domains shown)
VH: EVQLVESGGDLVQPGGSLRLSCAASGFTFSSYEMNWVRQAPGKGLEWVSFISDSSSNIYYADSVKGRFTISRDNAKKSLYLQMTSLRAEDTAVYYCAREAIGSTSFDNWGQGTLVTVSS
VL: EIVMTQSPATLSVSPGERATLSCRASQSVSSSLAWYQQKPGQAPRRLIYSASTRATGIPARFSGSGSGTEFTLTISSLQSEDFAIYYCHQYNNWPLTFGGGTKVEIK
As to B2, the binding result is listed as “binds”.
